Laboratory results reported in patent publication US20230000870A1, “METHODS OF TREATING CANCER IN BIOMARKER-IDENTIFIED PATIENTS WITH INHIBITORS OF CYCLIN-DEPENDENT KINASE 7 (CDK7)” (Syros Pharmaceuticals, Inc., priority 2019, published 2023).

Chains of the proteins cited; added tags and fusions are not shown. Residues count along the entry.
UniProt P50750, whole entry: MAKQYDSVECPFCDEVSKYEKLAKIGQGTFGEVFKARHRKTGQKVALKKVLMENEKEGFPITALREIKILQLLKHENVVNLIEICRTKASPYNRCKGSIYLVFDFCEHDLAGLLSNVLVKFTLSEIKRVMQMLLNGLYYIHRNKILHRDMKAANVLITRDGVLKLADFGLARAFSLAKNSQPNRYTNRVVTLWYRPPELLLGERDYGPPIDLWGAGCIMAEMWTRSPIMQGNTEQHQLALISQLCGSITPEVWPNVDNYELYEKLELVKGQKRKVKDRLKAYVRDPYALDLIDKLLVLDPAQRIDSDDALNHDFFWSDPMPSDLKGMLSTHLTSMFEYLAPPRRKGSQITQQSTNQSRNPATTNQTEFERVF
UniProt Q9NYV4, 686-1082 limits assumed: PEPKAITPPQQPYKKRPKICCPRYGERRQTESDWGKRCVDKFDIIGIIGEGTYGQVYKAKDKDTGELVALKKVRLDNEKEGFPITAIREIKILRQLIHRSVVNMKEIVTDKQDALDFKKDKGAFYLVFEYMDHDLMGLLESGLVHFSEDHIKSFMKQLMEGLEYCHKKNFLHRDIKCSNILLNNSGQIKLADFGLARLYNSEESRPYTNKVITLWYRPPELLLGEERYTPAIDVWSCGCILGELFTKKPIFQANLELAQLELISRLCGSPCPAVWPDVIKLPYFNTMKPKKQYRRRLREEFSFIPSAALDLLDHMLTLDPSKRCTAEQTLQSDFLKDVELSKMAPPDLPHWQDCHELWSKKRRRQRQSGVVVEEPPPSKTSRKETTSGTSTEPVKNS
UniProt P50613, whole entry: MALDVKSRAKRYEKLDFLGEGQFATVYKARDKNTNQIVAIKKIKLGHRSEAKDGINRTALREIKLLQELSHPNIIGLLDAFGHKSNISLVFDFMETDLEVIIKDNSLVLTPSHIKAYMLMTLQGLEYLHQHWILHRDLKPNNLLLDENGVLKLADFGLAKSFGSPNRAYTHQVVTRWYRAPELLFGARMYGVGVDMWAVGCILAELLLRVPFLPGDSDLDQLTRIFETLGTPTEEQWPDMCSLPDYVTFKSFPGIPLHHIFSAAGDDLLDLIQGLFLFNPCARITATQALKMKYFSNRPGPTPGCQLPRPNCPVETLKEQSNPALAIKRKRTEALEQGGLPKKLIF
UniProt P51946, whole entry partner: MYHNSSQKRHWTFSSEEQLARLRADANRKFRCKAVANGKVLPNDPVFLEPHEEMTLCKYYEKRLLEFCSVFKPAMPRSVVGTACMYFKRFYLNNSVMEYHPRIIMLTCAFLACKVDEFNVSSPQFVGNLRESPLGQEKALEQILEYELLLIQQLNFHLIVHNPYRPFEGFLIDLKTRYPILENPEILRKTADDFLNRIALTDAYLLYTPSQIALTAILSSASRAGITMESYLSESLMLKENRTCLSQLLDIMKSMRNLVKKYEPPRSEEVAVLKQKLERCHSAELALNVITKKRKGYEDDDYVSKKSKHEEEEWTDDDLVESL
UniProt O75909, whole entry partner: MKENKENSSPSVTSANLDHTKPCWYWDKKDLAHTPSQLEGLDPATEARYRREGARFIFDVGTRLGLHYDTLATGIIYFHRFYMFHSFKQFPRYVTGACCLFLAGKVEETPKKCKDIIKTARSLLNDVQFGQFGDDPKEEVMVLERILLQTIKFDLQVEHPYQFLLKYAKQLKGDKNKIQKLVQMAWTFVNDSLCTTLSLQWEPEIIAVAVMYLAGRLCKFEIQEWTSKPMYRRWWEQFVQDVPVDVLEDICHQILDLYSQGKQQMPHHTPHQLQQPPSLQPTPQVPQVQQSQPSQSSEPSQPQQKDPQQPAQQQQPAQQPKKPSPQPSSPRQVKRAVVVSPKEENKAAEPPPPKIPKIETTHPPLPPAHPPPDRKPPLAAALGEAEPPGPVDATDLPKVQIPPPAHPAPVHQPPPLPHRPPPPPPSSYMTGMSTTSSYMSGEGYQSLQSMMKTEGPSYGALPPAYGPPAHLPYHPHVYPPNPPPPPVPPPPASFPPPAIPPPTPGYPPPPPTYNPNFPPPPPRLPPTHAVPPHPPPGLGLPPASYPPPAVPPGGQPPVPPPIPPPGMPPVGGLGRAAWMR
UniProt P51948, whole entry partner: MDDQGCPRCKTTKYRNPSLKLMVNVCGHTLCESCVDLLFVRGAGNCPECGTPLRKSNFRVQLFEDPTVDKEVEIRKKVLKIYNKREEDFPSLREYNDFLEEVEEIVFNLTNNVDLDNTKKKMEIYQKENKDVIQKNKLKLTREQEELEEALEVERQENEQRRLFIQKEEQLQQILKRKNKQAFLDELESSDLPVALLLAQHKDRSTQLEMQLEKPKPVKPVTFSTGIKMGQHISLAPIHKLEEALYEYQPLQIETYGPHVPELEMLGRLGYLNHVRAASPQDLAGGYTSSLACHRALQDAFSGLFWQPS
UniProt O60563, whole entry partner: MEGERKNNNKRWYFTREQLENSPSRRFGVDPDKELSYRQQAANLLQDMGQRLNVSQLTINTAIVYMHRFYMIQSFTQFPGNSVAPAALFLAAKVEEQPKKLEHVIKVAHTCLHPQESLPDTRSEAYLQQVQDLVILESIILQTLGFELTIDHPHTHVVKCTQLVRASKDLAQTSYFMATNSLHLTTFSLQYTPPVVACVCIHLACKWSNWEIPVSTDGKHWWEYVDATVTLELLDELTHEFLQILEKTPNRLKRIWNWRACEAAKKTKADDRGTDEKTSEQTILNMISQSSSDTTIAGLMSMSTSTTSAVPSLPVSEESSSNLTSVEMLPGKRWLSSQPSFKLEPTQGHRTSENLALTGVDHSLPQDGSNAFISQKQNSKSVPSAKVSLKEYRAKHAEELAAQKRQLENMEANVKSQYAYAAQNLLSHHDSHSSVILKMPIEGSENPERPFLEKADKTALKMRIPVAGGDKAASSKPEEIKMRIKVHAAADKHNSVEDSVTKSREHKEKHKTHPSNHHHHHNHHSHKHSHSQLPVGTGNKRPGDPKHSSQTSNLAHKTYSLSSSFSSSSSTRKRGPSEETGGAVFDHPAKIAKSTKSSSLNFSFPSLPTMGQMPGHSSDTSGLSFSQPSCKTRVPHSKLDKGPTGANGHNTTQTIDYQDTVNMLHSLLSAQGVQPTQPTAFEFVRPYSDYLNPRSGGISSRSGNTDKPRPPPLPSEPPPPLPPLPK

Experiments:
CDK9/Cyclin T1 complex = CDK9/Cyclin T1 complex (Homo sapiens, UniProt P50750); assay: CDK9 kinase inhibition assay (Caliper/LabChip EZ Reader); type: biochemical; settings: read-out: CDK9 IC50; CDK9/Cyclin T1 8 nM, ATP 2 mM, 15 min at 27° C.
CDK2/Cyclin E1 complex = CDK2/Cyclin E1 complex (Homo sapiens, UniProt P24941); assay: CDK2 kinase inhibition assay (Caliper/LabChip EZ Reader); type: biochemical; settings: read-out: CDK2 IC50; CDK2/Cyclin E1 0.5 nM, ATP 2 mM, 35 min at 27° C.
[1] = target: CDK12 (aa686-1082)/Cyclin K complex (Homo sapiens, UniProt Q9NYV4); assay: CDK12 kinase inhibition assay (Caliper/LabChip EZ Reader); type: biochemical; settings: read-out: CDK12 IC50; CDK12 (aa686-1082)/Cyclin K 50 nM, ATP 2 mM, 3 hr at 27° C.
[2] = target: CDK7/Cyclin H/MAT1 complex (Homo sapiens, UniProt P50613); assay: CDK7 kinase inhibition assay (Caliper/LabChip EZ Reader); type: biochemical; settings: read-out: CDK7 IC50; CDK7/Cyclin H/MAT1 6 nM, ATP 2 mM, 35 min at 27° C.
A673 cells = assay: Inhibition of proliferation of A673 cells (CyQUANT, 72 hour); settings: read-out: Inhibition of Proliferation of A673 Cells (calculated IC50)
HCC70 cells = assay: Inhibition of proliferation of HCC70 cells (CyQUANT Direct, 72 hour); settings: read-out: Inhibition of Proliferation of HCC70 Cells (calculated IC50)

Row | IC50 (CDK9/Cyclin T1 complex) | IC50 (CDK2/Cyclin E1 complex) | IC50 [1] | IC50 [2] | Structure (SMILES) | IC50 (A673 cells) | IC50 (HCC70 cells)
1 | 200 to 5000 nM | 200 to 5000 nM | 200 to 5000 nM | 20 to 200 nM | FC(F)(F)c1cnc(N[C@H]2CCC3(CCCCC3)NC2)nc1-c1c[nH]c2ccccc12 |  | 
2 | > 5000 nM | > 5000 nM | 200 to 5000 nM | 20 to 200 nM | C=CC(=O)N1CCC(CO[C@H]2CNC[C@@H](Nc3ncc(C(F)(F)F)c(-c4c[nH]c5c(S(C)(=O)=O)cccc45)n3)C2)CC1 | < 20 nM | 100 to 1000 nM
3 | > 5000 nM | > 5000 nM | > 5000 nM | 200 to 5000 nM | CCC(=O)N[C@H]1CNC[C@@H](Nc2ncc(C(F)(F)F)c(-c3c[nH]c4c(S(C)(=O)=O)cccc34)n2)C1 |  | 
4 | 200 to 5000 nM | 200 to 5000 nM | 200 to 5000 nM | < 20 nM | CNC(=O)[C@H]1CNC[C@H](Nc2ncc(C(F)(F)F)c(-c3c[nH]c4ccccc34)n2)C1 | 20 to 200 nM | 
5 |  |  | 200 to 5000 nM | 20 to 200 nM | FC(F)(F)c1cnc(N[C@H]2CCCNC2)nc1-c1c[nH]c2cc(-c3ccc4c[nH]nc4c3)ccc12 |  | 100 to 1000 nM
6 | > 5000 nM | > 5000 nM | > 5000 nM | 20 to 200 nM | Cc1noc(C2CCC(Nc3ncc(C(F)(F)F)c(-c4c[nH]c5cc(C#N)ccc45)n3)CN2)n1 (stereo not drawn) |  | 100 to 1000 nM
